In article PMC2825141 (Journal of medicinal chemistry, 2009):
pIC50: −log10 of the molar value.

Biological target: T1, G9a (Homo sapiens, UniProt Q96KQ7)
T1 sequence (Q96KQ7 1-1210): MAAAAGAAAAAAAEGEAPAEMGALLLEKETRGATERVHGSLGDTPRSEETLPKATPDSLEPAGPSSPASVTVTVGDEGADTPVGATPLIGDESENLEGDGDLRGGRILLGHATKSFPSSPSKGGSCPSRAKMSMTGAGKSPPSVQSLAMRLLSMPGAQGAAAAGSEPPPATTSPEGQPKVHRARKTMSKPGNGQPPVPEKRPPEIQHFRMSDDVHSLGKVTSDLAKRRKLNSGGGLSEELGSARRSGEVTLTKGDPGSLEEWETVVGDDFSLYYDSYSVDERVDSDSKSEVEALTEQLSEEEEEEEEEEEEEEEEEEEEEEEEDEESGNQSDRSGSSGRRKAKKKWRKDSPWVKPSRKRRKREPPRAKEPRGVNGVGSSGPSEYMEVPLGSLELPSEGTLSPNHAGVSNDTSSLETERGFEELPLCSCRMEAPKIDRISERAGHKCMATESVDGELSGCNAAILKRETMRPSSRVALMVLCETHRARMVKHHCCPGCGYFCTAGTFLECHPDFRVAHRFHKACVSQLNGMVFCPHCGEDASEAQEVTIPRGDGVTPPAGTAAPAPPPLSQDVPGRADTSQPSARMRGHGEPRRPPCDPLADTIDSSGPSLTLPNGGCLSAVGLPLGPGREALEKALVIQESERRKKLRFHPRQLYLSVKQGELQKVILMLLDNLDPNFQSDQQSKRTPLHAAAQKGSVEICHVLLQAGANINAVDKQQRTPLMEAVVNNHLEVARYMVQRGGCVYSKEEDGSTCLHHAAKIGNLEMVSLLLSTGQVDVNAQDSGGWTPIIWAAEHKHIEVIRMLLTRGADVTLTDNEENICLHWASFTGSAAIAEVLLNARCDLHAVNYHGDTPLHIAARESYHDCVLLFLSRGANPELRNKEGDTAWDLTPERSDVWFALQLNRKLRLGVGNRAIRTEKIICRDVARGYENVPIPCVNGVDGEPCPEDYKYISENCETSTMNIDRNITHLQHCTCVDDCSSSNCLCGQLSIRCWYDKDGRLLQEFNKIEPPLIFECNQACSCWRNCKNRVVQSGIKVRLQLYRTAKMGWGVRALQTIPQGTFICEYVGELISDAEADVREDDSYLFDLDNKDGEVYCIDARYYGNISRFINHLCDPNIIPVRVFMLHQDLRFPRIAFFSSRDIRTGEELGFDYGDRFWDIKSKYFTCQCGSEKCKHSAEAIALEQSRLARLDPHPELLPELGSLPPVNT
Test: G9a AlphaScreen
Type: biochemical

pIC50: 6.54
SMILES: COc1cc2c(NC3CCN(C)CC3)nc(N3CCCN(C)CC3)nc2cc1OCCCN(C)C [Compound 8]
